In data set [1] the test system is maize seedlings. The settings on record: in vivo.
The subject of data set [2] is rice. To be noted: 0.1 μM irrigation and 0.001-0.1 μM spraying of fluridone.

For the substance fluridone, the “morphology / appearance of treated seedlings” value in data set [1] is on record as “white with green tips”. In addition, the “bleaching of the leaves” value in data set [2] is “did not occur”.

Source of the values: patent US20090178158A1, “RESISTANCE AGAINST PARASITIC WEEDS” (Plant Research International B.V., priority 2005, published 2009).
